Molecules are shown by their SMILES. Bounds are passed on as bounds.

The first test addresses T1, Serine/threonine-protein kinase Chk1 (Homo sapiens, UniProt O14757).
T1 sequence (O14757 whole entry): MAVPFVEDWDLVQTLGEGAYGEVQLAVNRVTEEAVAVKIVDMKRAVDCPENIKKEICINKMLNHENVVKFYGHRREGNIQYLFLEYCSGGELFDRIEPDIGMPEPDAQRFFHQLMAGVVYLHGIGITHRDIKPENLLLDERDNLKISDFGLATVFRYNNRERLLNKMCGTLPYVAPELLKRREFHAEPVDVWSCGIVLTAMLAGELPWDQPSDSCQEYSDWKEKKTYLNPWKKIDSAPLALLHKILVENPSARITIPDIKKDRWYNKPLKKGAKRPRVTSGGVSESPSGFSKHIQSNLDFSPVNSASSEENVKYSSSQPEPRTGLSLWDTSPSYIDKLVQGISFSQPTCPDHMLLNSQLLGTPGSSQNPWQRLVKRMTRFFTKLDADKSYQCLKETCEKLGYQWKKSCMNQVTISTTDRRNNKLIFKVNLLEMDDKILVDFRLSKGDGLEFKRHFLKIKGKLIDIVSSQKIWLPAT
As to the kind of experiment: Inhibition of Chek1.
As usually defined, the IC50 is the concentration at which inhibition is half-maximal. Low readings indicate greater potency in that assay, high ones weaker potency in that assay. `OCc1n[nH]nc1-c1ccc2c(-c3cc4cc(CN5CCCCC5)ccc4[nH]3)n[nH]c2c1` returned an IC50 of 0.3 nM.

The species entered for another test is Homo sapiens. Put plainly: Selectivity for Chek1 over Cdk7.
Regarding `N#Cc1ccc2c(-c3cc4cc(CN5CCOCC5)ccc4[nH]3)n[nH]c2c1`, the Ratio IC50 came to 0.37.
The same measure, in the same setting: the same measure for `NC(=O)c1ccc2c(-c3cc4cc(CN5CCOCC5)ccc4[nH]3)n[nH]c2c1`: 110; for `COC(=O)c1ccc2c(-c3cc4cc(CN5CCOCC5)ccc4[nH]3)n[nH]c2c1`: 100.
On the same count and under the same terms, the figure for `c1cc2[nH]c(-c3n[nH]c4cc(-c5cn[nH]c5)ccc34)cc2cc1CN1CCOCC1` is 2.5; for `CN(C)C(=O)c1ccc2c(-c3cc4cc(CN5CCOCC5)ccc4[nH]3)n[nH]c2c1` it is > 1200; for `CNC(=O)c1ccc2c(-c3cc4cc(CN5CCOCC5)ccc4[nH]3)n[nH]c2c1` it is 380.

(Values after ChEMBL document CHEMBL1139742, “3-(Indol-2-yl)indazoles as Chek1 kinase inhibitors: Optimization of potency and selectivity via substitution at C6” (Bioorg Med Chem Lett, 2006).)
